# Yeast mating assay B: variants of the scFv Ab-14

Target: peptide PDVDLGDISGINAS, taken from heptad repeat 2 (HR2) of SARS-CoV-2 spike.

The variants keep the heavy chain, the linker and the frameworks of Ab-14 (scFv order VH, a 15-residue (Gly4Ser)3 linker, VL).
VH: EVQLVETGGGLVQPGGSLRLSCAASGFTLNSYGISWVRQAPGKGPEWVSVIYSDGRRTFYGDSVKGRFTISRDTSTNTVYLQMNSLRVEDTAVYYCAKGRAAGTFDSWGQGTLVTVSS
VL: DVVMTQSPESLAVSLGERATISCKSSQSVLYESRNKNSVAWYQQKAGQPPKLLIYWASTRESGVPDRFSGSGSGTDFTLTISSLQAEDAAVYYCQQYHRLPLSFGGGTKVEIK

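Phage display of a naive human antibody library on the peptide gave the parent. The variants were designed computationally from a first round of random CDR variants and then made and measured. Group labels follow the data file (Ctrl: baseline library sampled from a position-specific scoring matrix, with some repeated check sequences; En: ensemble of fine-tuned language models; GP: Gaussian process model; HC: hill climbing; Gen: genetic algorithm; Gibbs: Gibbs sampling; a sequence that several methods proposed may carry one label only). The assay is AlphaSeq: two haploid yeast populations carry antibody and antigen on their surface. Mating (16 h, 30 °C) was followed by selection of diploids and sequencing of their barcodes. Each replicate has its own calibration line, from reference interactions of the BCL2 family. Each pool was mated in six replicate cultures.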

The parent's light chain CDRs are KSSQSVLYESRNKNSVA, WASTRES, QQYHRLPLS; each variant's own CDRs replace them letter for letter. This list holds designs with more than six substitutions. Each Kd is an estimate from the mating assay, the geometric mean of the replicates in which the pair was seen; lower is stronger. "nd" marks a missing value. The strain was present, yet no cells mated with the target were sequenced in any replicate, which points to weak or no binding. Order: sorted from the lowest average up, undetected variants last. Empty control strains, which show no peptide, gave a signal in 4% of pairings with all light chain designs; the median was 430 nM and 95% of these signals were weaker than 38 nM. No background was subtracted. Also given: how often the same scFv was detected with the empty control strains. In the paper, a design with two or fewer of six values counts as a poor binder. Values of this round are not directly comparable with the first-round values of the same sequences.

Variant KFSMSEDYESRNKNSVA / NAQTRMS / QQYHRLPLS [GP_Gibbs] gave 290 pM (6 of 6 replicates; controls 1 of 18). With KCYQSQDYESRNKNAVA / NASQRES / QQYHRLPLS [GP_Gibbs] the result was 520 pM (6 of 6 replicates; controls 0 of 18). With GLSQSVEQLERNKNSVA / HASQREV / QQYHRLPLS [GP_Gibbs] the result was 740 pM (6 of 6 replicates; controls 2 of 18). For KSMFSVPGEDRNKNSVA / EASTRCS / QQYHRLPLS [GP_Gibbs], the assay gave 750 pM (6 of 6 replicates; controls 0 of 18). For KLSNSVWMESRNKNQVA / EASKREM / QQYHRLPLS [GP_Gibbs], the assay gave 1.0 nM (6 of 6 replicates; controls 3 of 18). With KIGGVTNGISKNKNSVA / EQSTRES / QQYNRLPLS [En_HC] the result was 1.0 nM (6 of 6 replicates; controls 2 of 18).

Variant KSSPSELYEDRNFNSVA / HASQREE / QQYHRLPLS [GP_Gibbs] showed 1.0 nM (6 of 6 replicates; controls 0 of 18). For HLSPSVPYESRNKNSVA / NASTREE / QDYHRLPLS [GP_HC], the assay gave 1.1 nM (6 of 6 replicates; controls 2 of 18). For KAQDSELYSSRDDNSVA / DASKRES / QQYHRLPLS [GP_Gibbs], the assay gave 1.4 nM (6 of 6 replicates; controls 0 of 18). With KFQIGFNQGHSMEHNIA / EGTYAEE / QQYARLPLQ [En_Gibbs] the result was 1.5 nM (5 of 6 replicates; controls 0 of 18). With KLGATMNTEMTKRNNVA / DLVMREN / QQYFRLPLS [En_Gen] the result was 1.6 nM (6 of 6 replicates; controls 2 of 18). For KSSPSEYYEDREFNSVA / HASQRES / QQYHRLPLS [GP_Gibbs], the assay gave 1.7 nM (6 of 6 replicates; controls 0 of 18).

Variant ALSQSMDMTSRNKNSVA / DLTLREN / QQYHRLPLS [En_HC] gave 1.7 nM (6 of 6 replicates; controls 1 of 18). Variant MISNVMNTLTRQGNNVA / DLTEREE / QQYFRLPLS [En_Gen] showed 2.4 nM (6 of 6 replicates; controls 1 of 18). For KQQQSALMEERNFNSVA / HASTRES / QQYHRLPLS [GP_Gibbs], the assay gave 3.3 nM (6 of 6 replicates; controls 1 of 18). For KIGSGTNGEKFQSNSVA / QTSTREE / QQYDRLPLS [En_HC], the assay gave 3.7 nM (6 of 6 replicates; controls 0 of 18). Variant KSENTVLKESRNLNSVA / SESTRES / QQYHRLPLS [Ctrl] showed 3.8 nM (6 of 6 replicates; controls 1 of 18). With MISNVMNTLTRYGNNVA / DLTEREE / QQYFRLPLS [En_Gen] the result was 3.9 nM (6 of 6 replicates; controls 2 of 18).

With MLLQSTMYGERNRNSVA / HASTRED / QQYNRLPLI [En_HC] the result was 4.2 nM (6 of 6 replicates; controls 2 of 18). With RITDHFLGLGNGRQAIA / HATVAVE / QQYHQLPLA [En_Gibbs] the result was 5.4 nM (6 of 6 replicates; controls 4 of 18). With KSAYSELLESRNCNSVA / SASTREV / QQYHRLPLS [GP_Gibbs] the result was 6.0 nM (6 of 6 replicates; controls 1 of 18). Variant KLSMSYREESVNKNSIA / ELVTRMS / QQYHRLPLS [En_HC] showed 9.5 nM (6 of 6 replicates; controls 1 of 18). For KFMTSGEYQMHEQNNIA / QGNIKFV / QQYFRLPIS [En_Gibbs], the assay gave 11 nM (6 of 6 replicates; controls 2 of 18). Variant TISQMSTLFSMSINNVA / EVSTREE / QQYDRLPLA [En_Gen] showed 13 nM (6 of 6 replicates; controls 0 of 18).

Variant RLTEHTSERAYADASVA / NASTRND / QQYHRLPLA [En_Gibbs] showed 13 nM (6 of 6 replicates; controls 1 of 18). For QLMGQGDHSIEHANSIA / NVDIVDM / QQYAHLPLS [En_Gibbs], the assay gave 18 nM (6 of 6 replicates; controls 0 of 18). Variant KLSMITGHLSTAKNNVA / EMVTREN / QQYNRLPLS [En_Gen] showed 19 nM (6 of 6 replicates; controls 0 of 18). With KIAQSMNMTSHHINSVA / QSETREE / QQYNHLPLS [En_HC] the result was 23 nM (6 of 6 replicates; controls 2 of 18). Variant MISGSVMSESRLNNSVA / QTTTRES / QQYDRLPLS [En_HC] showed 35 nM (5 of 6 replicates; controls 1 of 18). With SLTVIDNYGSQLENNIA / QGVCKAE / QQYIRLPLI [En_Gibbs] the result was 40 nM (5 of 6 replicates; controls 0 of 18).

Variant KISQMVRVGATHGNSIA / EEATRAK / QQYHRLPLA [En_Gen] showed 54 nM (6 of 6 replicates; controls 1 of 18). Variant AVSIEHMENTAIWNAIA / DTSLRNN / QQYYHLPLS [En_Gibbs] showed 61 nM (6 of 6 replicates; controls 0 of 18). With NLVGRVPDNYTERNAIA / DMHCRAG / QQYERLPLS [En_Gibbs] the result was 130 nM (6 of 6 replicates; controls 2 of 18). Variant TIGQTLMMGMRNRSNVA / EVSQRLN / QQYDRLPLL [En_Gen] showed 180 nM (6 of 6 replicates; controls 0 of 18). Variant HILQNMMYESRNINSVA / HQSTRED / QQYHSLPLS [En_HC] showed 200 nM (2 of 6 replicates; controls 0 of 18). Variant IVSQLMMWGLHASNSIA / EAVTRYN / QQYDRLPLF [En_Gen] gave 270 nM (4 of 6 replicates; controls 1 of 18).

Variant MLTDVARGLTRKEDSVA / DNSTRES / QQYDRLPLS [En_Gen] gave 270 nM (3 of 6 replicates; controls 2 of 18). For KLSMKTYGPTEDKSNVA / NDEMRWQ / QQYDKLPLI [En_Gibbs], the assay gave 360 nM (4 of 6 replicates; controls 3 of 18). With KLSVSMLLESFHKNSVA / ENSTREE / QHYHRLPLS [En_HC] the result was 490 nM (1 of 6 replicates; controls 0 of 18). Variant IIAENSDDITEKQNSIA / ETSQVTQ / QQYHLLPLA [En_Gibbs] gave 510 nM (4 of 6 replicates; controls 3 of 18). Variant TLTQVQGMESHHKDNVA / DLSTRGN / QQYDRLPLS [En_HC] gave 680 nM (5 of 6 replicates; controls 2 of 18). With KLLQEVQGRSQNRNSVA / HNSTRED / QQYDRLPLE [En_HC] the result was 830 nM (3 of 6 replicates; controls 0 of 18).

With IVSQLMLWGMHHKNSIA / EAQTRLN / QQYDRLPLI [En_Gen] the result was 1.3 µM (2 of 6 replicates; controls 0 of 18). Variant HVPNYPENFTSAKQNIA / DQSATTS / QQYDRLPLA [En_Gibbs] showed nd (0 of 6 replicates; controls 0 of 18). For MISQLINMGSFAINSVA / QASIRCN / QQYDRLPLA [En_Gen], the assay gave nd (0 of 6 replicates; controls 0 of 18).

Data: MIT Lincoln Laboratory AlphaSeq set, Li et al. 2023, doi:10.1038/s41467-023-39022-2, as distributed in FLAb.